Assay results reported in patent publication US11186582B2, “Substituted [1,2,4]triazolo[1,5-a]pyrimidin-7-yl compounds as PDE2 inhibitors” (DART NEUROSCIENCE (CAYMAN) LTD., priority 2014, dated 2021).

Protein sequences, listed by entry. Tags and fused reporters are not part of them. Residues count along the entry.
UniProt O00408, 2-941: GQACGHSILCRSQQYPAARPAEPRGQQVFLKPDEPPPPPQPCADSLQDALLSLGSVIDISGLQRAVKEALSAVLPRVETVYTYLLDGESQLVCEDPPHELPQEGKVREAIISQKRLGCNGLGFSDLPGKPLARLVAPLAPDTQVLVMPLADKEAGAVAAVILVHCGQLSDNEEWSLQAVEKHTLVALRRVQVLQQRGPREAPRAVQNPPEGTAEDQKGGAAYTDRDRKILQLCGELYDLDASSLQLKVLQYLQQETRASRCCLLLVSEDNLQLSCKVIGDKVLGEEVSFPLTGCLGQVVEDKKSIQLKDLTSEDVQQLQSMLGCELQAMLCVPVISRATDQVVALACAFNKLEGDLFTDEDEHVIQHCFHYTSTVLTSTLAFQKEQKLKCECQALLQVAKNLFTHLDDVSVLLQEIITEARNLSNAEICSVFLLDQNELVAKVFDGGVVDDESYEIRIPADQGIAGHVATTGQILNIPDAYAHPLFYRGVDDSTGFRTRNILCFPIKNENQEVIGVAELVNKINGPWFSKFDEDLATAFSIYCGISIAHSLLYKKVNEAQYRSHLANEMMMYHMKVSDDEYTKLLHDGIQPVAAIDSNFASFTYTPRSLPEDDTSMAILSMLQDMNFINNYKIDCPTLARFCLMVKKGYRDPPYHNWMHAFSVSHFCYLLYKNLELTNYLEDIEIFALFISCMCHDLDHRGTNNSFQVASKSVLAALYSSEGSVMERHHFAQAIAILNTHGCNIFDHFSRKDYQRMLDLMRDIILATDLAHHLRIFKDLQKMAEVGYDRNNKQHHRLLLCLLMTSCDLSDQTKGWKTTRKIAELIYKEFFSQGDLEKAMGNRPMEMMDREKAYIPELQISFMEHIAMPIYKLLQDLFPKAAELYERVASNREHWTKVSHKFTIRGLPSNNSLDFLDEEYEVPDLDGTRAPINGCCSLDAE

molecular target: FLAG-tagged PDE2A1 (amino acids 2-941) (Homo sapiens (Human), UniProt O00408); test: IMAP TR-FRET PDE2A phosphodiesterase enzymatic assay; settings: not given

| SMILES | IC50 |
| --- | --- |
| Cc1cc(C2CCCN(C(=O)c3cc(C4CC4)no3)C2)n2ncnc2n1 (stereo not shown) [Example 425, 1-[(3-Cyclopropyl-1,2-oxazol-5-yl)carbonyl]-3-{5-methyl-[1,2,4]triazolo[1,5-a]pyrimidin-7-yl}piperidine] | 100 to 1000 nM |
| Cc1cc(C2CCCN(C(=O)c3ccccc3Cl)C2)n2ncnc2n1 (stereo not shown) [Example 426, 1-[(2-Chlorophenyl)carbonyl]-3-{5-methyl-[1,2,4]triazolo[1,5-a]pyrimidin-7-yl}piperidine] | > 10000 nM |
| Cc1cc(C2CCCN(C(=O)c3ccccc3-c3ccccc3)C2)n2ncnc2n1 (stereo not shown) [Example 427, 3-{5-Methyl-[1,2,4]triazolo[1,5-a]pyrimidin-7-yl}-1-[(2-phenylphenyl)carbonyl]piperidine] | 1000 to 10000 nM |
| Cc1cc(C2CCCN(C(=O)c3cccc(F)c3F)C2)n2ncnc2n1 (stereo not shown) [Example 428, 1-[(2,3-Difluorophenyl)carbonyl]-3-{5-methyl-[1,2,4]triazolo[1,5-a]pyrimidin-7-yl}piperidine] | 1000 to 10000 nM |
| Cc1cc(C2CCCN(C(=O)c3cnoc3C3CC3)C2)n2ncnc2n1 (stereo not shown) [Example 429, 1-[(5-Cyclopropyl-1,2-oxazol-4-yl)carbonyl]-3-{5-methyl-[1,2,4]triazolo[1,5-a]pyrimidin-7-yl}piperidine] | > 10000 nM |
| Cc1cc(C2CCCN(C(=O)c3cc(-c4ccccc4)n(C)n3)C2)n2ncnc2n1 (stereo not shown) [Example 430, 1-[(1-Methyl-5-phenyl-1H-pyrazol-3-yl)carbonyl]-3-{5-methyl-[1,2,4]triazolo[1,5-a]pyrimidin-7-yl}piperidine] | 100 to 1000 nM |
| Cc1cc(C2CCCN(C(=O)c3cc(C)n(C)n3)C2)n2ncnc2n1 (stereo not shown) [Example 432, 1-[(1,5-Dimethyl-1H-pyrazol-3-yl)carbonyl]-3-{5-methyl-[1,2,4]triazolo[1,5-a]pyrimidin-7-yl}piperidine] | 1000 to 10000 nM |
| Cc1cc(C2CCCN(C(=O)c3cc(F)ccc3F)C2)n2ncnc2n1 (stereo not shown) [Example 433, 1-[(2,5-Difluorophenyl)carbonyl]-3-{5-methyl-[1,2,4]triazolo[1,5-a]pyrimidin-7-yl}piperidine] | 1000 to 10000 nM |
| Cc1cc(C2CCCN(C(=O)c3cc(C4CC4)on3)C2)n2ncnc2n1 (stereo not shown) [Example 434, 1-[(5-Cyclopropyl-1,2-oxazol-3-yl)carbonyl]-3-{5-methyl-[1,2,4]triazolo[1,5-a]pyrimidin-7-yl}piperidine] | 100 to 1000 nM |
| Cc1cc(C2CCCN(C(=O)c3cnn(C(C)C)c3)C2)n2ncnc2n1 (stereo not shown) [Example 435, 3-{5-Methyl-[1,2,4]triazolo[1,5-a]pyrimidin-7-yl}-1-{[1-(propan-2-yl)-1H-pyrazol-4-yl]carbonyl}piperidine] | 100 to 1000 nM |
| Cc1cc(C2CCCN(C(=O)c3ccc(Cl)cc3Cl)C2)n2ncnc2n1 (stereo not shown) [Example 436, 1-[(2,4-Dichlorophenyl)carbonyl]-3-{5-methyl-[1,2,4]triazolo[1,5-a]pyrimidin-7-yl}piperidine] | 100 to 1000 nM |
| Cc1cc(C2CCCN(C(=O)c3cc(C(C)C)nn3C)C2)n2ncnc2n1 (stereo not shown) [Example 437, 1-{[1-Methyl-3-(propan-2-yl)-1H-pyrazol-5-yl]carbonyl}-3-{5-methyl-[1,2,4]triazolo[1,5-a]pyrimidin-7-yl}piperidine] | 100 to 1000 nM |
| Cc1cc(C2CCCN(C(=O)c3cc(Cl)ccc3Cl)C2)n2ncnc2n1 (stereo not shown) [Example 438, 1-[(2,5-Dichlorophenyl)carbonyl]-3-{5-methyl-[1,2,4]triazolo[1,5-a]pyrimidin-7-yl}piperidine] | 100 to 1000 nM |
| Cc1cc(C2CCCN(C(=O)c3ccc(Cl)cc3F)C2)n2ncnc2n1 (stereo not shown) [Example 440, 1-[(4-Chloro-2-fluorophenyl)carbonyl]-3-{5-methyl-[1,2,4]triazolo[1,5-a]pyrimidin-7-yl}piperidine] | 100 to 1000 nM |
| Cc1cc(C2CCCN(C(=O)c3cc(F)ccc3C)C2)n2ncnc2n1 (stereo not shown) [Example 441, 1-[(5-Fluoro-2-methylphenyl)carbonyl]-3-{5-methyl-[1,2,4]triazolo[1,5-a]pyrimidin-7-yl}piperidine] | > 10000 nM |
| CCn1nccc1C(=O)N1CCCC(c2cc(C)nc3ncnn23)C1 (stereo not shown) [Example 443, 1-[(1-Ethyl-1H-pyrazol-5-yl)carbonyl]-3-{5-methyl-[1,2,4]triazolo[1,5-a]pyrimidin-7-yl}piperidine] | 1000 to 10000 nM |
| Cc1cc(C2CCCN(C(=O)c3ccc(Cl)cc3)C2)n2ncnc2n1 (stereo not shown) [Example 444, 1-[(4-Chlorophenyl)carbonyl]-3-{5-methyl-[1,2,4]triazolo[1,5-a]pyrimidin-7-yl}piperidine] | 100 to 1000 nM |
| Cc1cc(C2CCCN(C(=O)c3cccc(C(C)C)c3)C2)n2ncnc2n1 (stereo not shown) [Example 450, 3-{5-Methyl-[1,2,4]triazolo[1,5-a]pyrimidin-7-yl}-1-{[3-(propan-2-yl)phenyl]carbonyl}piperidine] | 100 to 1000 nM |
| COc1cccc(C(=O)N2CCCC(c3cc(C)nc4ncnn34)C2)c1OC (stereo not shown) [Example 451, 1-[(2,3-Dimethoxyphenyl)carbonyl]-3-{5-methyl-[1,2,4]triazolo[1,5-a]pyrimidin-7-yl}piperidine] | 1000 to 10000 nM |

same assay, conditions: IMAP TR-FRET, 200 nM FAM-cAMP substrate, 11-point half-log dose-response

| SMILES | PDE2 (pIC50) |
| --- | --- |
| Cc1cc(C2CCCN(C(=O)c3cnn(-c4ccccc4)c3)C2)n2ncnc2n1 (stereo not shown) [Example 439, 3-{5-Methyl-[1,2,4]triazolo[1,5-a]pyrimidin-7-yl}-1-[(1-phenyl-1H-pyrazol-4-yl)carbonyl]piperidine] | >7 |
| COc1ccc(C(=O)N2CCCC(c3cc(C)nc4ncnn34)C2)cc1OC (stereo not shown) [Example 442, 1-[(3,4-Dimethoxyphenyl)carbonyl]-3-{5-methyl-[1,2,4]triazolo[1,5-a]pyrimidin-7-yl}piperidine] | >7 |
| Cc1cc(C2CCCN(C(=O)c3cc(-c4ccccc4)nn3C)C2)n2ncnc2n1 (stereo not shown) [Example 445, 1-[(1-Methyl-3-phenyl-1H-pyrazol-5-yl)carbonyl]-3-{5-methyl-[1,2,4]triazolo[1,5-a]pyrimidin-7-yl}piperidine] | >7 |
| COc1c(C(=O)N2CCCC(c3cc(C)nc4ncnn34)C2)ccc2ccccc12 (stereo not shown) [Example 446, 1-[(1-Methoxynaphthalen-2-yl)carbonyl]-3-{5-methyl-[1,2,4]triazolo[1,5-a]pyrimidin-7-yl}piperidine] | >7 |
| COc1ccc2cc(C(=O)N3CCCC(c4cc(C)nc5ncnn45)C3)ccc2c1 (stereo not shown) [Example 447, 1-[(6-Methoxynaphthalen-2-yl)carbonyl]-3-{5-methyl-[1,2,4]triazolo[1,5-a]pyrimidin-7-yl}piperidine] | >7 |
| Cc1cc(C2CCCN(C(=O)c3ccc4c(c3)OCO4)C2)n2ncnc2n1 (stereo not shown) [Example 448, 1-[(2H-1,3-Benzodioxol-5-yl)carbonyl]-3-{5-methyl-[1,2,4]triazolo[1,5-a]pyrimidin-7-yl}piperidine] | >7 |
| COc1cc2ccccc2cc1C(=O)N1CCCC(c2cc(C)nc3ncnn23)C1 (stereo not shown) [Example 449, 1-[(3-Methoxynaphthalen-2-yl)carbonyl]-3-{5-methyl-[1,2,4]triazolo[1,5-a]pyrimidin-7-yl}piperidine] | >7 |
| Cc1cc(C2CCCN(C(=O)c3ccc4sccc4c3)C2)n2ncnc2n1 (stereo not shown) [Example 452, 1-[(1-Benzothiophen-5-yl)carbonyl]-3-{5-methyl-[1,2,4]triazolo[1,5-a]pyrimidin-7-yl}piperidine] | >7 |
| Cc1cc(C2CCCN(C(=O)c3ccc4c(c3)OCCO4)C2)n2ncnc2n1 (stereo not shown) [Example 453, 1-[(2,3-Dihydro-1,4-benzodioxin-6-yl)carbonyl]-3-{5-methyl-[1,2,4]triazolo[1,5-a]pyrimidin-7-yl}piperidine] | >7 |
